# According to US10919895B2, “Toll-like receptor 7 (TLR7) agonists having a pyridine or pyrazine moiety, conjugates thereof, and methods and uses therefor” (BRISTOL-MYERS SQUIBB COMPANY, priority 2017, dated 2021):
# Amino acid sequences for entries named in this document (tags omitted). Residues count along the entry.
# UniProt Q9NYK1, 27-1049 limits assumed: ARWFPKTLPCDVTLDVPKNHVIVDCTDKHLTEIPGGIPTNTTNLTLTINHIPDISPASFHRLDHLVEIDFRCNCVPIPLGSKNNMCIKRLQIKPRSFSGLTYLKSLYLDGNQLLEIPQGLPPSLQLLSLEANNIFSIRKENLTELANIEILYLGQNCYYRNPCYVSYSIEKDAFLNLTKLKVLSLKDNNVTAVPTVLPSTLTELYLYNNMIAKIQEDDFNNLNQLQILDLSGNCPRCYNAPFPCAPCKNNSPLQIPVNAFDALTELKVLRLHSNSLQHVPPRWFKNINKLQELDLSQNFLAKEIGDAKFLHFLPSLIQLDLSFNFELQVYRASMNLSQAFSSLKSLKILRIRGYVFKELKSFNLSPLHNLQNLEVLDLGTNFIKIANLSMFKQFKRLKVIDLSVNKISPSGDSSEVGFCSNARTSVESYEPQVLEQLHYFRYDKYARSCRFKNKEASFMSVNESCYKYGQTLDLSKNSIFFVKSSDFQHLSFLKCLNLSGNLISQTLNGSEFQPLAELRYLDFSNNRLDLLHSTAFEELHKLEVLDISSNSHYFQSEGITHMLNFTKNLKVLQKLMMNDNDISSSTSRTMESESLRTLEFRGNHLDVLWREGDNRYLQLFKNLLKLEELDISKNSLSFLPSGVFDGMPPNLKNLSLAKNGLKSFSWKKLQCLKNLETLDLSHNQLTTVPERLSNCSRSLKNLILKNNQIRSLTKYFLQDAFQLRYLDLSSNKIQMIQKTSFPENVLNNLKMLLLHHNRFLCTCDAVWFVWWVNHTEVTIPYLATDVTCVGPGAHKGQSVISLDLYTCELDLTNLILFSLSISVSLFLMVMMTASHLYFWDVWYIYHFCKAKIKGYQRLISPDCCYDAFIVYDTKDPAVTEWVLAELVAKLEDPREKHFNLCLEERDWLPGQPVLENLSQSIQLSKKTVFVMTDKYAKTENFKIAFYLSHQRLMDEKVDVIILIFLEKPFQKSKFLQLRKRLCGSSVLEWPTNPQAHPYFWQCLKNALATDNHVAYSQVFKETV
# How the values were obtained:
# human TLR7 = human TLR7 (Homo sapiens (Human), UniProt Q9NYK1); assay: HEK-Blue TLR7 reporter assay for TLR7 agonist activity; assay type: cell-based; conditions: read-out: TLR7 Agonism (EC50); HEK-Blue TLR7 cells, SEAP reporter, 18 h treatment
# interleukin 6 (IL-6) = assay: IL-6 induction in human whole blood (AlphaLISA); conditions: read-out: IL-6 Induction (EC50), 37° C., 20 h
Structure (SMILES),EC50 (human TLR7),EC50 (interleukin 6 (IL-6))
CCCCOc1nc(N)c2nc(O)n(Cc3ccc(CNC4CCC4)nc3)c2n1,3.6 nM,22 nM
CCCCOc1nc(N)c2nc(O)n(Cc3cnc(CNCCO)cn3)c2n1,770 nM,
